Source: patent US20230355612A1 (SHANGHAI BOCIMED PHARMACEUTICAL CO., LTD., priority 2020, published 2023)

Assay: Solubility comparison in media, shaken at 37° C. for 24 h, HPLC
Procedure: The mixtures were shaken at 37° C. for 24 h and filtered through 0.45 μm aqueous-phase filter membranes. The filtrates were collected and the solubility was determined by high performance liquid chromatography. pH3, pH4, pH5 and pH6 represent acetate buffer solutions, and pH7, pH7.4, pH8 and pH9 represent phosphate buffer solutions.

With cariprazine sebacate the Solubility (Water) was >169.7 µg/mL, the Solubility (pH 3 acetate buffer) was >152.7 µg/mL and the Solubility (pH 5 acetate buffer) was <169.7 µg/mL. The Solubility (pH 7 phosphate buffer) was <152.7 µg/mL and the Solubility (pH 9 phosphate buffer) was <186.7 µg/mL.
